The values below come from patent US8759342B2, “Benzo[1,4]oxazin-3-one, benzo[1,4]thiazin-3-one and quinolin-2-one urotensin II receptor antagonists” (Janssen Pharmaceutica NV, priority 2006, dated 2014).

Each structure is given as a SMILES string. pKi: −log10 of the molar value.

This test has as its target T1, Human UII receptors (Homo sapiens, UniProt Q9UKP6).
T1 construct: host or cells: Human Skeletal Muscle Myoblasts (HSMM), intact adherent cells
T1 sequence (Q9UKP6 1-389): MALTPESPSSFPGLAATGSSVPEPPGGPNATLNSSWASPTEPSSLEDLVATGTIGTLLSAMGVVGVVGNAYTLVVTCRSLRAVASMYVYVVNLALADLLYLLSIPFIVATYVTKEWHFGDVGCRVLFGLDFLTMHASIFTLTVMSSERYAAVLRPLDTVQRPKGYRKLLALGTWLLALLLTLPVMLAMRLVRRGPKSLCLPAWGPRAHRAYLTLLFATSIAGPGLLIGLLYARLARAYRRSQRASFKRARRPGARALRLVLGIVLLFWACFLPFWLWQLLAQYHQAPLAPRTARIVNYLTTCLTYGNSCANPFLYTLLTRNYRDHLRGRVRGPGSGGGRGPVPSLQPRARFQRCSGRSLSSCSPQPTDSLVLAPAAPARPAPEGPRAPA
In words: Human radioligand binding assay, (125I)-U-II on HSMM. On the procedure: Human Skeletal Muscle Myoblasts (HSMM) were obtained from Cambrex, and were cultured according to manufacturer's instruction. Cell viability was examined by trypan blue exclusion. Cells at less than 4 passages were used in all studies. […] The binding medium used was Dulbecco's modified Eagle's medium (DMEM) containing 2 mg/ml BSA and 25 mM HEPES (pH 7.4). […] The cells were washed 4× with the binding medium and solubilized in 1% SDS and 0.5 N NaOH. Radioactivity was quantified by gamma counting.

As a reminder, the pKi is −log10 of the Ki, conventionally taken in molar units. The low end stands for a large Ki, the high end for a small Ki. Regarding `CN(C)C(=O)C1(c2ccc(Cl)cc2)CCN(CCN2C(=O)COc3ccccc32)CC1` [Cpd 113, 4-(4-chloro-phenyl)-1-[2-(3-oxo-2,3-dihydro-benzo[1,4]oxazin-4-yl)-ethyl]-piperidine-4-carboxylic acid dimethylamide], the pKi was 5.77.
